For one molecule, Ratio IC50 and IC50 results are on record in ChEMBL document CHEMBL1156142, “COX, LOX and platelet aggregation inhibitory properties of Lauraceae neolignans” (Bioorg Med Chem Lett, 2009).

One test is filed under the species Ovis aries. Kind of test: Selectivity ratio of IC50 for ovine COX-1 to IC50 for ovine COX-2.
Test [1] can be described thus: Antiplatelet activity in rabbit platelets assessed as inhibition of adenosin 5'-diphosphate-induced platelet aggregation. In kind it is functional, cell-based. The following applies: Oryctolagus cuniculus.

Each structure is given as a SMILES string.

For the molecule `C=CCC1=C[C@@]2(OC)C(=CC1=O)O[C@H](c1cc(OC)c(OC)c(OC)c1)[C@H]2C` [MIRANDIN A], the Ratio IC50 in the test filed under Ovis aries amounted to 13.2. For the same molecule, in test [1], the IC50 (commonly the concentration that inhibits the measured activity by half) was 121 µM.
